Values of other authors as cited in paper PMC9227077 (2022).

How the values were obtained:
[1] = experimental, cited from earlier work; for logP: octanol-water partition coefficient
human serum albumin = conditions: pH=7.4, isocratic, 10% acetonitrile; available for 37 compounds, remaining calculated by equation; cited from earlier work
[2] = rat, in vivo; cited from earlier work

OCCOCCN1CCN(C(c2ccccc2)c2ccc(Cl)cc2)CC1 (stereo not shown) [Hydroxyzine]
logP [1]: 3.5

CN(C)CCCN1c2ccccc2CCc2ccccc21 [Imipramine]
logk10,HSA (human serum albumin): 0.77

Cc1nc2n(c(=O)c1CCN1CCC(c3noc4cc(F)ccc34)CC1)CCCC2 [Risperidone]
Kp,brain [2]: 0.95
logBB exper. [2]: -0.02
logP [1]: 2.50
logD ([1]; pH=5.0, octanol-water): -1.24
logD ([1]; pH=7.4, octanol-water): 1.63

Where two headings read alike, the source gives them in different places.
